Measurements taken from article PMC12186844 (ACS Chemical Neuroscience, 2025).
Like-named read-outs stand apart in the source and are kept apart here.

Chains of the proteins cited; added tags and fusions are not shown.
UniProt P14416, whole entry: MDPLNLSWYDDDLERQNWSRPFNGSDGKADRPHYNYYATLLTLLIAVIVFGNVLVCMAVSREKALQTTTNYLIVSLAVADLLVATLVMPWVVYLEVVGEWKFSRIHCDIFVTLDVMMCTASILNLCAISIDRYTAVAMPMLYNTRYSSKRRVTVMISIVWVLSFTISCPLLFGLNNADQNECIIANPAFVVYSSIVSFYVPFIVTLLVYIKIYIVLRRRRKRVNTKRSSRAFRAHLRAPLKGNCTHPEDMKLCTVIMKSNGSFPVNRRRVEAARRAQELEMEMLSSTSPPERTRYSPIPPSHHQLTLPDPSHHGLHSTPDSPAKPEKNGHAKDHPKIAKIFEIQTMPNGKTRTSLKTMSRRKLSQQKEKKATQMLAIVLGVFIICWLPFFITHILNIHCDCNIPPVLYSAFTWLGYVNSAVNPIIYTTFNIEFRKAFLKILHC

Target: D2LR (Homo sapiens, UniProt P14416)
Assay: whole cell [3H]raclopride binding assay
[1] = orthosteric ligand, radioligand binding assay

For `CCN1CCC[C@H]1CNC(=O)c1c(O)c(Cl)cc(Cl)c1OC` (racemic) [[3H]raclopride, reference compound], the KA was 1.4 nM and the pKA was 8.86 ± 0.16.

`CCCN1CCC[C@@H](c2cccc(O)c2)C1` [S-(3)-PPP, reference compound] gave a KA [1] of 1740 nM and a pKA [1] of 5.76 ± 0.18.
